The results in this text go back to patent publication US5227488A, “Aza spiro decane and use thereof in treating CNS disorders” (Novo Nordisk A/S, priority 1989, dated 1993).

Protein sequences, listed by entry. Tags and fused reporters are not part of them.
UniProt P28564, whole entry: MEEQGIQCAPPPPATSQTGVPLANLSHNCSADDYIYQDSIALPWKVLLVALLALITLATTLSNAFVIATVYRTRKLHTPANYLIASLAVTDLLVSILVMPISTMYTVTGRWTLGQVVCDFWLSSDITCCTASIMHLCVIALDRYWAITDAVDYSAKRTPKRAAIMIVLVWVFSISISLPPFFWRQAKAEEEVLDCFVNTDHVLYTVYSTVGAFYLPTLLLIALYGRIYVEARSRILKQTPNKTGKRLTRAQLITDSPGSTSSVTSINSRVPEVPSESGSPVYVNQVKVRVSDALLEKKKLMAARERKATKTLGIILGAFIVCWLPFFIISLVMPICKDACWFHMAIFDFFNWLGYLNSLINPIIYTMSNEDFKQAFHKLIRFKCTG

This experiment has as its target T1, 5-HT1B (Rattus norvegicus, UniProt P28564).
T1 construct: from tissue; host or cells: rat brain: frontal cortex, hippocampus
The experiment can be described thus: Receptor binding in vitro, 5-HT1B (3H-5-HT displacement, with 50 nM 8-OH-DPAT). The method, then: Compounds of the general formula (I) were tested for binding to 5-HT receptors and compared with known ligands by the following procedure:
Rat brain tissue (as specified in the table hereinafter) was homogenized using a Polytron homogenizer. The final pellet was resuspended in 125 vol (tissue wet weight) of buffer.
In all assays incubation was carried out for 10 min at 37° C.
Labelling of the 5-HT1B receptor was complicated by the fact that the available ligand ^3 H-5-HT is nonselective.
Detailed conditions for the receptor binding assay in vitro are tabulated below.

Some results are limits rather than exact numbers.

The term IC50 denotes the point on the concentration scale where inhibition reaches its midpoint. High values mean weaker potency in that assay, low ones greater potency in that assay. Turning to `CC1(C)CC(=O)N(CCCCN2CCN(c3ncccn3)CC2)C(=O)C1` [gepirone, reference compound], the IC50 was greater than 1000 nM.
